System: rats
Assay: Radial maze (8-arm maze working memory) test in rats, ketamine-induced deficit
Conditions: ip. administration, FIG. 3

COc1ccc2oc(C3=NN=C(C)Cc4cc5c(cc43)OC(C)C(=O)N5)c(C)c2c1 (single isomer, unassigned; (+)) [Example 4, (+)-6-(5-Methoxy-3-methyl-1-benzofuran-2-yl)-3,9-dimethyl-1,10-dihydro[1,4]oxazino[3,2-h][2,3]benzodiazepin-2(3H)-one]
Effect on ketamine-induced deficit in working memory: Reduction of the ketamine-induced deficit in working memory

From US9926332B2, “Dihydro-oxazinobenzodiazepine compounds, a process for their preparation and pharmaceutical compositions containing them” (priority 2014, dated 2018)
